Biological target: T1, inducible NO-synthase (NOS 2) (Homo sapiens, UniProt P35228)
T1 construct: positive control (induction of the enzyme); endogenous in cells
Assay: Activity on inducible NO-synthase: decrease in nitrate and nitrite concentration after stimulation of NO-synthase 2 (test of Heck et al.)
Format: cell-based
Conditions: control compound at 200 μM, nitrites and nitrates measured
Procedure: The activity of the extracts on inducible NO-synthase was evaluated in the test described by Heck et al. (J.B.C., Vol. 267, No. 30, 21277-21280, Oct. 25, 1992). […] N^G-monomethyl-L-arginine (L form) at 200 μM; • C: control for specificity of inhibition: N^G-monomethyl-L-arginine (D form) at 200 μM. In order to determine the activity of the product to be tested, the amount of stable NO reaction products (nitrites and nitrates) is measured using the nitric calorimetric assay kit sold by the company Boehringer under the reference 1756.28.

SMILES: CNC(=N)NCCC[C@H](N)C(=O)O [B, N^G-monomethyl-L-arginine]
- % inhibition: 100%

SMILES: CNC(=N)NCCC[C@H](N)C(=O)O [C, N^G-monomethyl-L-arginine]
- % inhibition: 0%

Source: patent US20050281900A1, “Plant extract of the species Vitis vinifera as no-synthase inhibitor and uses” (L'OREAL, priority 2000, published 2005)
